Literature values as cited in patent publication US20090226517A1, “PHARMACEUTICAL FORMULATIONS COMPRISING DULOXETINE” (priority 2008, published 2009).

Conditions: background statement

CNCC[C@H](Oc1cccc2ccccc12)c1cccs1.Cl [Duloxetine hydrochloride, (+)-(S)—N-methyl-γ-(1-naphthyloxy)-2-thiophenepropylamine hydrochloride]
Solubility in water: slightly soluble in water
